In patent US5280548A, “Emission based fiber optic sensors for pH and carbon dioxide analysis” (BOC Health Care, Inc., priority 1993, dated 1994):
Read-outs that look alike come from different tables or passages of the source.

What was measured:
[1] = for emission yield (Φ): 37° C.
[2] = Emission lifetime measurement; assay type: physicochemical; details: 37° C.
Excerpt: 1969, 31, 1-13], as a standard.

seminaphthorhodaflor-1-carboxylate dextran conjugate [SNARF-1C-Dex]
emission yield (Φ) ([1]; acid form): .024
emission yield (Φ) ([1]; base form): .022
isosbestic point ([1]; emission spectra as a function of pH): 620 nm
lifetime (τ) ([2]; acid form): 0.91 ns
lifetime (τ) ([2]; base form): 1.39 ns
